Source: PubChem BioAssay AID1986 (Sanford-Burnham Center for Chemical Genomics, 2009)
The entries are a selection whose mix differs from that of the whole data set. Some of these compounds have results that are not shown, active ones among them. Calls of active or inactive are those of the source. Cut-off read from the data, not from the text of the source: active = inhibition mostly above about 52% (no sharp cut-off); inactive = mostly below about 76%.

test: inhibitors of HIV fusion peptide binding, primary screen, biochemical, uHTS, fluorescence dequenching (AID 1986); settings: HIV Env-mediated cell-cell fusion, fluorescence reporter; at 20 µM; active compounds read high

Row | Compound | inhibition
1 | Cc1ccc(C(=O)NCC2(N3CCCCC3)CCCCC2)cc1 | inactive: 0.1%
2 | CC(C)N1C(=O)CC2(CCN(CCOC(=O)C(O)(c3ccccc3)c3ccccc3)CC2)C1=O | inactive: -0.9%
3 | CCN(CC)CC(C)C(C)OC(=O)C(O)(c1ccccc1)c1ccccc1 (centres undefined) | inactive: -0.7%
4 | COc1cc(SC)ccc1C(=O)NCC1(N(C)C)CCCCC1 | inactive: 0%
5 | CN1[C@@H]2CC[C@H]1CC(OC(=O)C(O)(c1ccccc1)c1ccccc1)C2 (some centres undefined) | inactive: 1%
6 | O=C(NCC1(N2CCCCC2)CCCCC1)c1cc([N+](=O)[O-])ccc1Cl | inactive: -2.3%
7 | CCN1CCCC(OC(=O)C2(O)c3ccccc3C=Cc3ccccc32)C1 (centres undefined) | inactive: 0%
8 | Cc1cc(C(=O)NCC2(N3CCCCC3)CCCCC2)ccc1[N+](=O)[O-] | inactive: -0.3%
9 | O=C(NCC1(N2CCCCC2)CCCCC1)c1cccc(Br)c1 | inactive: 1.1%
10 | COc1ccc(C(=O)NCC2(N(C)C)CCCCC2)cc1 | inactive: -2.7%
11 | C=CCN1CCN(CCOC(=O)C(O)(c2ccccc2)c2ccccc2)CC1 | inactive: 0.2%
12 | O=C(NCC1(N2CCCCC2)CCCCC1)c1cc(F)c(F)cc1Cl | inactive: 0.4%
13 | Cc1ccccc1C(=O)NCC1(N2CCCCC2)CCCCC1 | inactive: 2.9%
14 | CN(C)c1ccc(C(=O)NCC2(N(C)C)CCCCC2)cc1 | inactive: 0.6%
15 | CN(C)C1CCCC1OC(=O)C(O)(c1ccccc1)c1ccccc1 (centres undefined) | inactive: 1%
16 | O=C(NCC1(N2CCCCC2)CCCCC1)c1cccc(Cl)c1 | inactive: -0.3%
17 | COc1cccc(C(=O)NCC2(N3CCCCC3)CCCCC2)c1 | inactive: -1.3%
18 | COc1ccc(Cl)cc1C(=O)NCC1(N(C)C)CCCCC1 | inactive: 0.4%
19 | COc1cc(C(=O)NCC2(N(C)C)CCCCC2)c([N+](=O)[O-])cc1OC | inactive: -1.4%
20 | CN(C)C1(CNC(=O)c2ccc(Br)cc2)CCCCC1 | inactive: -1.5%
21 | CN(C)c1cccc(C(=O)NCC2(N(C)C)CCCCC2)c1 | inactive: -2.2%
22 | CC(C)Oc1ccc(C(=O)NCC2(N(C)C)CCCCC2)cc1 | inactive: -1.8%
23 | COc1ccc(Br)c(C(=O)NCC2(N3CCCCC3)CCCCC2)c1 | inactive: 3.7%
24 | O=C(OC1CN2CCC1CC2)C(CO)(c1ccccc1)c1ccccc1 (centres undefined) | inactive: 1.8%
